Biological target: T1, PD-L2-Fc (human, UniProt Q9BQ51)
T1 construct: recombinant Fc fusion; also called human PD-L2-Fc (#10292-H02H, Sino)
T1 sequence (ligand-Fc, looked up): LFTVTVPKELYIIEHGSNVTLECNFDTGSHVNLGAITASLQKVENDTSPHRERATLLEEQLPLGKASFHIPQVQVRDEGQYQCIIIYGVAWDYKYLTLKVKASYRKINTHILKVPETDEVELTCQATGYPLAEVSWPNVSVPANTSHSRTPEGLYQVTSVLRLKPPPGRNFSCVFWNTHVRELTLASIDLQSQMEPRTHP
Assay: ELISA on coated PD-L2-Fc, OD450nm

B1: PD1-His (receptor)
chain: LDSPDRPWNPPTFSPALLVVTEGDNATFTCSFSNTSESFVLNWYRMSPSNQTDKLAAFPEDRSQPGQDCRFRVTQLPNGRDFHMSVVRARRNDSGTYLCGAISLAPKAQIKESLRAELRVTERRAEVPTAHPSPSPRPAGQFQTLV
notes: also called human PD-1-His (S1352, Y-Biologics); not shown: exact construct limits of Y-Biologics S1352
- binding result: binds

Source: patent US20190322750A1 (Y BIOLOGICS, published 2019)
